These results are taken from patent publication US5861405A, “S-substituted 1,3,7-trialkyl-xanthine derivatives” (priority 1994, dated 1999).

Chains of the proteins cited; added tags and fusions are not shown.
UniProt P25099, whole entry: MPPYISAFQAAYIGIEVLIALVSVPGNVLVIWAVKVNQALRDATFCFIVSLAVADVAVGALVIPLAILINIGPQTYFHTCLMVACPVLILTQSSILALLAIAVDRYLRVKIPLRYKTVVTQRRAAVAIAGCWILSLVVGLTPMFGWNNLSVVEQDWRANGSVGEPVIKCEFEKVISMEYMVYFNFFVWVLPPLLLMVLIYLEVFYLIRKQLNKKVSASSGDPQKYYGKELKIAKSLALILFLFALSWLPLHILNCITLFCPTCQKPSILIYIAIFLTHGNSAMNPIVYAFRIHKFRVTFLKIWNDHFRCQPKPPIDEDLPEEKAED
UniProt P30543, whole entry: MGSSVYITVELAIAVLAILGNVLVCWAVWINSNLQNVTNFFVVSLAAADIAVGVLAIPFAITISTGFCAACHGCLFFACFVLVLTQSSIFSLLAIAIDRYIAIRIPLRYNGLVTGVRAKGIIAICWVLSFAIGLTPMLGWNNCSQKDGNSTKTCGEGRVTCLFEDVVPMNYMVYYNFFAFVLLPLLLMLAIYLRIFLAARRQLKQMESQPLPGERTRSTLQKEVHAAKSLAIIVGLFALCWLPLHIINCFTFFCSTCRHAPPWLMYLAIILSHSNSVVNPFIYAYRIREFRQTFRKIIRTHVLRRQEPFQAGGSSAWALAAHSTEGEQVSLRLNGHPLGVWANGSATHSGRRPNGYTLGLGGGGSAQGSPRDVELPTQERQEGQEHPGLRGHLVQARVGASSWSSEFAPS

The target in experiment [1] is T1, rat A1 cortical receptors (Rattus norvegicus, UniProt P25099).
T1 construct: Rat cerebral cortical membranes and striatal membranes were prepared; from tissue; host or cells: rat cerebral cortex membranes
Nature of the experiment: Radioligand binding, [3H]N6-phenylisopropyladenosine ([3H]PIA), rat cortical A1 receptors.

The target in experiment [2] is A2a receptors, rat striatum (Rattus norvegicus, UniProt P30543).
For experiment [3], the system named is A2a receptors, bovine striatum.
The test system of experiment [4] is A2a receptors, rabbit striatum.
For experiment [5], the target named is T2, rat striatal A2a receptors (Rattus norvegicus, UniProt P30543).
Experiment [6] has as its target T2, rat striatal A2a receptors. Nature of the experiment: Radioligand binding, [3H]CGS 21680, rat striatal A2a receptors. The settings on record: Table I; for Ki: Ki (A2a), vs [3H]CGS21680 (5 nM), rat striatal A2 receptors.
Experiment [7] concerns A2 receptors. Conditions: background; cited from earlier work.

Where two headings read alike, the source gives them in different places.

Regarding `CCCn1c(=O)c2[nH]c(/C=C/c3ccccc3)nc2n(CCC)c1=O` [Compound 47], the Ki stood at 55 ± 28 nM in experiment [1] (Table I, vs [3H]PIA (1 nM), rat A1 receptors, read-out: Ki (A1)) and 55 nM in experiment [1] (read-out: A1 affinity in rat).
As to `Cn1c(=O)c2c(nc(/C=C/c3cccc(N=C=S)c3)n2C)n(C)c1=O` [Compound 28e, 1,3,7-trimethyl-8-(3-isothiocyanatostyryl)xanthine], the “selectivity ratio A2a versus A1 based on IC50” value in experiment [2] was 290 fold. Further, the “selectivity ratio A2a versus A1 based on Ki” value in experiment [2] is given as 180 fold. The A1/A2 ratio worked out at 291 in experiment [2] (IC50), 122 in experiment [3] (IC50) and 183 in experiment [4] (IC50). In experiment [2] (Table V footnote c), the “selectivity ratio based on Ki” value was 182. Further, the values for the A2a-selectivity in experiment [3] and in experiment [4] were 120 fold and 180 fold, respectively. Also, the “irreversible IC50 relative to competitive IC50” value in experiment [5] came to 18 times. Moreover, the A1/A2a ratio in experiment [6] (ratio of Ki values) is given as 180.
`CCCn1c(=O)c2c(nc(/C=C/c3cccc(Cl)c3)n2C)n(CCC)c1=O` [Compound 51b]: the Ki in experiment [6] came out at 61.3 ± 17.6 nM.
Still for that read-out and setting: to `CCn1c(=O)c2c(nc(/C=C/c3cc(OC)c(OC)c(OC)c3)n2C)n(CC)c1=O` [Compound 45b] belongs 81 ± 17 nM.
On to `Nc1nc2ccc(Cl)cc2c2nc(-c3ccco3)nn12` [CGS 15943], for which the “A2 selectivity, in words” value in experiment [7] was “A2 -selective but also by only one order of magnitude”.
